Experimental data published in patent publication US20130310347A1, “MULTI-MODALITY MOLECULAR IMAGING HIGH-THROUGHPUT ASSAY FOR IDENTIFYING HEAT SHOCK PROTEIN 90 (HSP90) INHIBITORS” (The Board of Trustees of the Leland Stanford Junior …, priority 2012, published 2013).

Tested on: Hsp90 client proteins (phosphorylated/total Akt, Raf-1)
Assay: Ex vivo western blotting of excised tumors
Conditions: western blotting after last imaging time point; p>0.05
Method: To determine if the inhibition of Hsp90(α/β)/p23 interactions also leads to degradation of Hsp90 client proteins in mice, tumors were excised from sacrificed mice after the last PET/CT imaging time point. The expression of phosphorylated/total Akt and Raf-1 in tumor lysates was determined by western blotting. α-tubulin was used as a loading control.
Mice were euthanized after the last imaging time points and tumors were excised and homogenized in tissue extraction buffer in the presence of HALT® protease and phosphatase inhibitors (all from Pierce, Ill.). Protein concentrations were determined by Biorad Protein Dc assay. The expression of phosphorylated/total Akt, Raf-1 and […] were determined by western blotting as described in Chan et al., (2008) Cancer Res. 68: 216-226. Western blot images were quantitated using NIH Image J, and expressed as the ratio of target protein/α-tubulin for each treatment group.

SMILES: Cc1cc(NC(=O)CSc2nc(-c3ccco3)cc(C(F)(F)F)n2)no1
- Hsp90 client proteins in excised tumors relative to carrier control: did not lead to significant decreases
